# Assay results: PubChem BioAssay AID1778 (Sanford-Burnham Center for Chemical Genomics, 2009)
# Sequences of proteins named here, by UniProt entry; tags and fusion partners are left off.
# UniProt P41145, whole entry: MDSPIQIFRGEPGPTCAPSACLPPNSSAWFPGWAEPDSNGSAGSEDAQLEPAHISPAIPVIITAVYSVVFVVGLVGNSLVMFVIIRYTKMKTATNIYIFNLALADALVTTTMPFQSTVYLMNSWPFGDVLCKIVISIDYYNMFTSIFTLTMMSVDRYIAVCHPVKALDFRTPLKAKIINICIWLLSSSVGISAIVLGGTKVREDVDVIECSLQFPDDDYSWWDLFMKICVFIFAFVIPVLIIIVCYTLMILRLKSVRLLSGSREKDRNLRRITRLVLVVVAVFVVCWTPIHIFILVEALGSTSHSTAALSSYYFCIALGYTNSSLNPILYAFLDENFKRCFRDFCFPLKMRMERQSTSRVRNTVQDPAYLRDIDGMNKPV
# This is a selection; strong and weak results do not stand in their true shares. Entries with a potency or affinity are not part of this list. Activity calls are given as the source filed them. Rule as the data show it: active = inhibition above about 50%; inactive = the rest.
# Molecular target: Kappa-type opioid receptor (Homo sapiens) (UniProt P41145)
# Assay: kappa opioid receptor blockers – cell-based, luminescence, uHTS (AID 1778)
# Conditions: KOR beta-arrestin recruitment, antagonist mode, at 10 µM, active compounds read high
row,SMILES,inhibition
1,CC(C)(C)OC(=O)N1CCC(N(C(=O)c2ccccc2)c2ccc(Cl)cc2)CC1,inactive: 7.5%
2,N#Cc1ccc(C(=O)NCC2(N3CCCCC3)CCCCC2)cc1,inactive: -37.1%
3,CCCN1CCC(Nc2cc(OC)cc(OC)c2)CC1,inactive: -3.2%
4,c1ccc(CN2CCC(Nc3ccccc3)CC2)cc1,inactive: -5.6%
5,CN(C)C1(CNC(=O)c2cccc(C#N)c2)CCCCC1,inactive: -6.7%
6,COc1ccc(C(=O)NCC2(N3CCOCC3)CCCCC2)cc1OC,inactive: 16.5%
7,O=C(OC1CN2CCC1CC2)C1c2ccccc2C=Cc2ccccc21 (stereo not given),inactive: -9.3%
8,N/C(=N\O)c1c(N)no[n+]1[O-],inactive: 9.4%
9,CCOC(=O)N1CCC(Nc2ccc(C)cc2)CC1,inactive: 5.5%
10,CCCOc1ccc(C(=O)NCC2(N(C)C)CCCCC2)cc1,inactive: 12.7%
11,O=C(O)C1(Nc2ccccc2)CCN(Cc2ccccc2)CC1,inactive: 9%
12,CC(C)(C)OC(=O)N1CCC(Nc2ccccc2)CC1,inactive: 11.3%
13,CN1CCC(Nc2ccc(F)c(Cl)c2)CC1,inactive: -3.2%
14,CCOc1ncccc1C(=O)NCC1(N2CCOCC2)CCCCC1,inactive: -11.4%
15,CCCOc1ccc(C)cc1CN(CCCl)CCCl,inactive: 14.4%
16,CN1CCC(Nc2ccc(Cl)cc2)CC1,inactive: 13.1%
17,CCC(CO)(C(=O)OC1CN2CCC1CC2)c1ccccc1 (stereo not given),inactive: 17.2%
18,COc1cc(OC)cc(C(=O)NCC2(N3CCOCC3)CCCCC2)c1,inactive: 16.4%
19,COc1cccc(C(=O)N(c2cc(C)cc(C)c2)C2CCN(C(=O)OC(C)(C)C)CC2)c1,inactive: -20.7%
20,Fc1ccccc1NC1CCN(Cc2ccccc2)CC1,inactive: -4.1%
21,COc1cc(OC)cc(C(=O)NCC2(N3CCCCC3)CCCCC2)c1,inactive: 8.2%
22,CN(C)c1ccc(C(=O)NCC2(N3CCCCC3)CCCCC2)cc1,inactive: 16.1%
23,CCN1CCC(Nc2cccc(F)c2)CC1,inactive: -12%
24,COc1ccc(NC2CCN(CCc3ccccc3)CC2)c(OC)c1,inactive: -18.2%
25,O=C(NCC1(N2CCCCC2)CCCCC1)c1ccc(F)cc1,inactive: -36.1%
26,CCOc1ccc(C)cc1CN(CCCl)CCCl,inactive: 6%
27,Cc1ccc(OCC(C)C)c(CN(CCCl)CCCl)c1,inactive: 3.4%
28,COc1cc(C(=O)NCC2(N(C)C)CCCCC2)ccc1OC(F)F,inactive: 2.3%
29,CCOC(=O)N1CCC(Nc2cccc(C)c2)CC1,inactive: 5.1%
30,CSc1ccccc1C(=O)NCC1(N2CCCCC2)CCCCC1,inactive: -29.9%
